# Reference: article PMC7827648 (Molecules, 2021)
# The chains behind the UniProt entries cited, without tags or fusion partners.
# UniProt P21397, whole entry: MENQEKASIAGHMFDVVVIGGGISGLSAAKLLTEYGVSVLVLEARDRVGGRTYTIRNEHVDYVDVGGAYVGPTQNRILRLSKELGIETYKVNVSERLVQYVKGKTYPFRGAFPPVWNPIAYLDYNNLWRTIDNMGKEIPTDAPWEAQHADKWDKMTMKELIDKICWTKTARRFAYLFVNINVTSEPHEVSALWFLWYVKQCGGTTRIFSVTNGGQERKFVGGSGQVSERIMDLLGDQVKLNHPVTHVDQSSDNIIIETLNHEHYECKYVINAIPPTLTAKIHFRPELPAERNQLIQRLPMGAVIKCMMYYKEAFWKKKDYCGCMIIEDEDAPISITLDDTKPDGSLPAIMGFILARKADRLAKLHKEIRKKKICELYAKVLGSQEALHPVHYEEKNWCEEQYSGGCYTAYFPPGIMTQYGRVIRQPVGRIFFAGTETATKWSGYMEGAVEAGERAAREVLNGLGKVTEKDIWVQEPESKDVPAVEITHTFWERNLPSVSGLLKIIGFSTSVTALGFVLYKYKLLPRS
# Molecular target: T1, human MAO A (Homo sapiens, UniProt P21397)
# T1 construct: host or cells: baculovirus-infected insect cells (microsomes)
# Assay type: biochemical
# Conditions: human recombinant MAO A, kynuramine, mean ± SD (n = 3); read-out: IC50 hMAO A
# Description: […]. […] […].
# The inhibition of human recombinant MAO A (250 U/mg) and B (59 U/mg; microsomes from baculovirus-infected insect cells) was evaluated using the reported 96-well plate technique. on a Tecan Infinite M1000 Pro instrument (Cernusco s.N., Italy). The test compounds, at different concentrations (typically, seven scalar concentrations ranging from 30 to 0.01 μM), were preincubated 20 min at 37 °C with kynuramine used as the MAO substrate in phosphate buffer at pH 8.0 (0.39 osmolar with KCl). After addition of the enzyme and 30 min of incubation, NaOH was added and the fluorescence read at the 310/400 excitation/emission wavelength. All the experiments were performed in triplicate (data reported as mean ± SD), and IC50 values were calculated by nonlinear regression of the response/concentration (log) curve by using Prism GraphPad software (ver. 5.01).
smiles,measurement,value
"C#CCN(C)Cc1ccccc1 [Pargyline, reference compound]",IC50,10.9 ± 0.6 µM
